Reference: PubChem BioAssay AID602440 (Sanford-Burnham Center for Chemical Genomics, 2012)
The entries are a selection whose mix differs from that of the whole data set. Some tests of the compounds listed are not included; inactive here does not mean inactive elsewhere. Activity calls are given as the source filed them. No stated cut-off is given here; in the data, active means inhibition mostly above about 40% (no sharp cut-off); inactive means mostly below about 27%.

The chains behind the UniProt entries cited, without tags or fusion partners.
UniProt Q96LD8, whole entry: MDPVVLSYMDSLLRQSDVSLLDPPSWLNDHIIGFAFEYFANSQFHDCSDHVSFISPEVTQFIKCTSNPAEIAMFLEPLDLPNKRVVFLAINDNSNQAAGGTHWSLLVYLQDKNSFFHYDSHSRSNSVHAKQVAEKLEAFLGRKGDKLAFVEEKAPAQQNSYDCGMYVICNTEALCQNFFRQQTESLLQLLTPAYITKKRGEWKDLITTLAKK

These compounds were tested against Sentrin-specific protease 8 (Homo sapiens) (UniProt Q96LD8) (assay: blockers of SENP8 deneddylase activity – biochemical, fluorescence, Nedd8 protein substrate, uHTS, primary screen (AID 602440)). Conditions: recombinant SENP8, Nedd8 substrate fluorescence; at 20 µM; active compounds read high.
For CC(C)N1C(=O)CC2(CCN(CCOC(=O)C(O)(c3ccccc3)c3ccccc3)CC2)C1=O, the inhibition was inactive: 13.6%. For COc1cc(SC)ccc1C(=O)NCC1(N(C)C)CCCCC1, the inhibition was inactive: 29.8%. With CCN(CC)CC(C)C(C)OC(=O)C(O)(c1ccccc1)c1ccccc1 (stereo unspecified) the inhibition was inactive: 18.8%. With Cc1ccc(C(=O)NCC2(N3CCCCC3)CCCCC2)cc1 the inhibition was inactive: 13.2%. With O=C(NCC1(N2CCCCC2)CCCCC1)c1cc([N+](=O)[O-])ccc1Cl the inhibition was inactive: 32.5%. For CN1[C@@H]2CC[C@H]1CC(OC(=O)C(O)(c1ccccc1)c1ccccc1)C2 (stereo partly specified), the inhibition was inactive: 18.8%. O=C(NCC1(N2CCCCC2)CCCCC1)c1cc(F)c(F)cc1Cl was tested, and the inhibition was inactive: 5.8%. C=CCN1CCN(CCOC(=O)C(O)(c2ccccc2)c2ccccc2)CC1 was tested, and the inhibition was inactive: 4.2%. In the case of O=C(NCC1(N2CCCCC2)CCCCC1)c1cccc(Br)c1, the inhibition is reported as inactive: 16.3%. CCN1CCCC(OC(=O)C2(O)c3ccccc3C=Cc3ccccc32)C1 (stereo unspecified) was tested, and the inhibition was inactive: 16.7%. In the case of Cc1cc(C(=O)NCC2(N3CCCCC3)CCCCC2)ccc1[N+](=O)[O-], the inhibition is reported as inactive: 17.4%. With COc1ccc(C(=O)NCC2(N(C)C)CCCCC2)cc1 the inhibition was inactive: 14.1%. CN(C)c1ccc(C(=O)NCC2(N(C)C)CCCCC2)cc1 was tested, and the inhibition was inactive: 13.4%. CN(C)C1CCCC1OC(=O)C(O)(c1ccccc1)c1ccccc1 (stereo unspecified) was tested, and the inhibition was inactive: 8.7%. With Cc1ccccc1C(=O)NCC1(N2CCCCC2)CCCCC1 the inhibition was inactive: 10.1%. COc1ccc(Cl)cc1C(=O)NCC1(N(C)C)CCCCC1 was tested, and the inhibition was inactive: 6.1%. In the case of COc1cccc(C(=O)NCC2(N3CCCCC3)CCCCC2)c1, the inhibition is reported as inactive: 13.8%. In the case of O=C(NCC1(N2CCCCC2)CCCCC1)c1cccc(Cl)c1, the inhibition is reported as inactive: 16.7%. In the case of CN(C)C1(CNC(=O)c2ccc(Br)cc2)CCCCC1, the inhibition is reported as inactive: 9.5%. For COc1cc(C(=O)NCC2(N(C)C)CCCCC2)c([N+](=O)[O-])cc1OC, the inhibition was inactive: 17.2%. COc1ccc(Br)c(C(=O)NCC2(N3CCCCC3)CCCCC2)c1 was tested, and the inhibition was inactive: 18.5%. With C=C(C)C#CC(O)(C(=O)OC1CCN(C)CC1)c1ccccc1 (stereo unspecified) the inhibition was inactive: 13.5%. CN(C)c1cccc(C(=O)NCC2(N(C)C)CCCCC2)c1 was tested, and the inhibition was inactive: -145%. With O=C(OCCN1CCCC1)C(O)(c1ccccc1)c1ccccc1 the inhibition was inactive: 19.9%. In the case of CC(C)Oc1ccc(C(=O)NCC2(N(C)C)CCCCC2)cc1, the inhibition is reported as inactive: 18.2%. For O=C(OC1CN2CCC1CC2)C(CO)(c1ccccc1)c1ccccc1 (stereo unspecified), the inhibition was inactive: 23.1%.
